The entries are a selection whose mix differs from that of the whole data set. Inconclusive results are not listed. The source made the active and inactive calls. Calls come from the whole dose curve; as a rule, active = well fitted activation curve with a large enough effect; inconclusive = small, poorly fitted or top-dose-only effect; inactive = no such curve, though single readings can be large or run the other way.
Assay: qHTS screen for small molecules that induce genotoxicity in human embryonic kidney (HEK293T) cells expressing luciferase-tagged ELG1; note: % of control where 0% means no effect; nearly all actives have a fitted effect of over 60% in size
Details: HEK293T ELG1-luciferase reporter, luminescence, 16 h; at 46 µM (top of the series)
From the text: NIH Molecular Libraries Probe Production Network [MLPCN] NIH Chemical Genomics Center [NCGC] MLPCN Grant: 1 R03 MH092164-01 Assay Provider: Kyungjae Myung, NHGRI, NIH Keywords: MLPCN, qHTS, NCGC, genotoxicity, cancer Assay Overview: Cancer cells divide rapidly compared to normal cells in the body. During cell division, cancer cells need to duplicate their genome by DNA replication. The failure of genome duplication leads to cancer cells' death. Therefore, inhibitors of DNA replication could specifically kill cancer cells. Based on this concept, many chemotherapeutic agents were developed and have been used to treat cancer patients. However, there are a limited number of agents available in the clinical setting, and some of those that do exist have low efficacy and severe side effects. Therefore, if we can find the compounds that effectively block DNA replication either by directly damaging DNA or by inhibiting other cellular mechanisms, the options for cancer treatment will be broadened. With this in mind, we developed a quantitative high-throughput ELG1-luciferase reporter gene assay. Since the level of human ELG1 protein is enhanced in response to genetic stresses, increases in luciferase activity can be used to identify compounds that cause genetic stress.
Assay Protocol Summary: For genotoxicity screening, 2,000 cells in 5 uL/well were dispensed into white, solid-bottom 1536-well plates using a solenoid-based dispenser. Following transfer of 23 nL compound or DMSO vehicle by a pin tool, the plates were incubated 16 hr at 37 °C and 5% CO2. 5 ul ONE-Glo (Promega) was then added to each plate and following a 30 min incubation at room temperature, luciferase activity was quantified on a ViewLux CCD-based plate reader.

| Structure (SMILES) | activity change, positive = activation |
| --- | --- |
| O=[N+]([O-])c1cc([N+](=O)[O-])c(-n2nnc3ccccc32)c([N+](=O)[O-])c1 | inactive: -0.52% |
| Cc1nc2ccc3ccccc3c2s1.O=[N+]([O-])c1cc([N+](=O)[O-])c(O)c([N+](=O)[O-])c1 | inactive: 1.23% |
| CC1=C2N=C(C=C3N=C(C(C)=C4[N-][C@@](C)([C@@H]5N=C1[C@](C)(CCC(=O)NC[C@@H](C)OP(=O)([O-])O[C@H]1[C@@H](O)[C@@H](n6cnc7cc(C)c(C)cc76)O[C@@H]1CO)[C@H]5CC(N)=O)[C@@](C)(CC(N)=O)[C@@H]4CCC(N)=O)[C@@](C)(CC(N)=O)[C@@H]3CCC(N)=O)C(C)(C)[C@@H]2CCC(N)=O.[C-]#N.[Co+3] | inactive: -46.6% |
| O=[N+]([O-])c1cc([N+](=O)[O-])c(Nc2nnnn2CCO)c([N+](=O)[O-])c1 | inactive: -4.93% |
| COc1ccccc1OP(C)(=O)Nc1c(C)cccc1C (stereo not drawn) | inactive: 0.913% |
| CN1CCCCC1COC(=O)C1(O)c2ccccc2CCc2ccccc21 (stereo not drawn) | inactive: -1.54% |
| CCCOc1ccc(NP(C)(=O)Oc2ccc(Cl)cc2)cc1 (stereo not drawn) | inactive: -0.42% |
| CP(=O)(Nc1ccc(SC(F)(F)F)cc1)Oc1ccccc1 (stereo not drawn) | inactive: 1.02% |
| CC1=NCCc2c1[nH]c1ccccc21.O=[N+]([O-])c1cc([N+](=O)[O-])c(O)c([N+](=O)[O-])c1 | inactive: -1.81% |
| COc1ccccc1OP(C)(=O)Nc1cccc(Br)c1 (stereo not drawn) | inactive: -0.86% |
| Cc1cc(C)cc(OP(C)(=O)Nc2ccc(C)cc2C)c1 (stereo not drawn) | inactive: -1.08% |
| CCOC(=O)c1ccc(NP(C)(=O)Oc2cc(C)cc(C)c2)cc1 (stereo not drawn) | inactive: -2.09% |
| Cc1cc(C)cc(OP(C)(=O)Nc2ccccn2)c1 (stereo not drawn) | inactive: 1.5% |
| CP(=O)(Nc1cccc(Br)c1)Oc1ccccc1 (stereo not drawn) | inactive: -9.91% |
| Cc1ccc(C)c(NP(C)(=O)Oc2ccccc2)c1 (stereo not drawn) | inactive: 2.18% |
| CCN(CC)CCCOC(=O)C(O)(c1ccccc1)c1ccccc1 | inactive: 3.37% |
| O=[N+]([O-])c1cc([N+](=O)[O-])c(Nc2cccnc2)c([N+](=O)[O-])c1 | inactive: -6.96% |
| Cc1cccc(C)c1OP(C)(N)=O (stereo not drawn) | inactive: -9.78% |
| CC(C)(C)c1ccc(OP(C)(=O)Nc2ccc(SC(F)(F)F)cc2)cc1 (stereo not drawn) | inactive: -1.43% |
| CCOC(=O)c1ccc(NP(C)(=O)Oc2ccccc2)cc1 (stereo not drawn) | inactive: 0.972% |
| Cc1ccc(NP(C)(=O)Oc2ccccc2)c(C)c1 (stereo not drawn) | inactive: -3.94% |
| COc1ccccc1OP(C)(=O)Nc1ccc(C)cc1 (stereo not drawn) | inactive: -0.872% |
| COc1ccc(OP(C)(=O)Nc2cccc(F)c2)cc1 (stereo not drawn) | inactive: -4.68% |
| COc1ccccc1OP(C)(=O)Nc1cc(Cl)ccc1C (stereo not drawn) | inactive: -1.69% |
| Cc1cc(C)cc(OP(C)(N)=O)c1 (stereo not drawn) | inactive: -11.4% |
| CP(=S)(Nn1cnnc1)Oc1ccccc1 (stereo not drawn) | inactive: -2.99% |

| Structure (SMILES) | activity change, positive = activation |
| --- | --- |
| COc1ccccc1OP(C)(=O)Nc1ccccc1 (stereo not drawn) | inactive: -9.24% |
| CP(=O)(Nc1ccccc1Br)Oc1ccccc1 (stereo not drawn) | inactive: 1.08% |
| CP(=O)(Oc1ccccc1)OC(c1ccccc1)C(F)(F)F (stereo not drawn) | inactive: -4.87% |
| Cc1cccc(C)c1OP(C)(=O)Nc1ccc(SC(F)(F)F)cc1 (stereo not drawn) | inactive: -0.0744% |
| CP(=O)(Nc1ccc(SC(F)(F)F)cc1)Oc1ccc(Cl)cc1 (stereo not drawn) | inactive: -3.37% |
| Cc1cc(C)cc(OP(C)(=O)Nc2ccc(SC(F)(F)F)cc2)c1 (stereo not drawn) | inactive: -5.84% |
| CP(=O)(NC(=O)Nc1ccccc1)Oc1ccccc1 (stereo not drawn) | inactive: 2.47% |
| CCc1ccc(OP(C)(=O)N2CCN(c3ccc([N+](=O)[O-])cc3)CC2)cc1 (stereo not drawn) | inactive: -7.71% |
| CCOP(C)(=S)SCC(=O)NC(C)C(=O)O (stereo not drawn) | inactive: 4.46% |
| CCOC(=O)c1ccc(NP(C)(=O)Oc2ccc(OC)cc2)cc1 (stereo not drawn) | inactive: 1% |
| COc1ccc(OP(C)(=O)Nc2ccc(Br)cc2)cc1 (stereo not drawn) | inactive: -0.191% |
| CCN(CC)CC(O)COC(=O)C(O)(c1ccccc1)C1CCCCC1 (stereo not drawn) | inactive: 1.98% |
| CCc1ccc(OP(C)(=O)Nc2cccnc2)cc1 (stereo not drawn) | inactive: 0.107% |
| CP(=O)(Oc1ccccc1)N1CCOC1=O (stereo not drawn) | inactive: -1.46% |
| O=C(OCCCN1CCCC1)C(O)(c1ccccc1)C1CCCCC1 (stereo not drawn) | inactive: -1.39% |
| COc1ccccc1OP(C)(=O)Nc1c(C)n(C)n(-c2ccccc2)c1=O (stereo not drawn) | inactive: 0.723% |
| CP(=O)(Nc1ccc(Cl)cc1)Oc1ccc(F)cc1 (stereo not drawn) | inactive: -0.271% |
| COc1ccccc1OP(C)(=O)Nc1ccccc1Br (stereo not drawn) | inactive: 1.31% |
| CC(C)(C)c1ccc(OP(C)(=O)O)cc1 | inactive: -6.13% |
| CN(C)C(=O)c1c([N+](=O)[O-])cc([N+](=O)[O-])cc1[N+](=O)[O-] | inactive: -12.8% |
| CP(=O)(OC12CC3CC(CC(C3)C1)C2)OC12CC3CC(CC(C3)C1)C2 | inactive: -3.76% |
| CCOC(=O)c1ccc(NP(C)(=O)Oc2ccc(Cl)cc2)cc1 (stereo not drawn) | inactive: -0.61% |
| Cc1cc(C)cc(OP(C)(=O)Nc2cccc(C(F)(F)F)c2)c1 (stereo not drawn) | inactive: 0.83% |
| COc1ccc(OP(C)(=O)Nc2ccccc2Br)cc1 (stereo not drawn) | inactive: -1.72% |
| COc1ccccc1OP(C)(=O)Nc1ccc(C)c(C)c1 (stereo not drawn) | inactive: 0.584% |
| CP(=O)(Nc1ccc(Cl)cc1Cl)Oc1ccccc1 (stereo not drawn) | inactive: -0.831% |

| Structure (SMILES) | activity change, positive = activation |
| --- | --- |
| CP(=O)(OCCOc1ccccc1)OCCOc1ccccc1 | inactive: -4.44% |
| COc1ccccc1OP(C)(=O)Nc1ccc(Br)cc1 (stereo not drawn) | inactive: -0.439% |
| CN(C)CCOC(=O)C(O)(c1ccccc1)C1CCCC1 (stereo not drawn) | inactive: 0.523% |
| COc1ccc(OP(C)(=O)Nc2ccccn2)cc1 (stereo not drawn) | inactive: -3.26% |
| Cc1c(NP(C)(=O)Oc2ccc(C(C)C)cc2)c(=O)n(-c2ccccc2)n1C (stereo not drawn) | inactive: -1.4% |
| O=[N+]([O-])c1cc([N+](=O)[O-])c(Nc2ccccn2)c([N+](=O)[O-])c1 | inactive: -15.1% |
| CCc1ccc(OP(C)(=O)O)cc1 | inactive: 0.671% |
| COc1ccccc1OP(C)(=O)Nc1ccc(C)cc1C (stereo not drawn) | inactive: 0.275% |
| CP(=O)(Nc1ccccn1)Oc1ccccc1 (stereo not drawn) | inactive: -1.64% |
| CC(C)c1ccc(OP(C)(=O)Nc2ccc(SC(F)(F)F)cc2)cc1 (stereo not drawn) | inactive: 0.727% |
| CP(=O)(Nc1ccccc1F)Oc1ccccc1 (stereo not drawn) | inactive: 1.02% |
| O=C(OCCN1CCN(CCOCc2ccccc2)CC1)C(O)(c1ccccc1)c1ccccc1 | inactive: -1.23% |
| COc1ccc(OP(C)(=O)Nc2ccc(SC(F)(F)F)cc2)cc1 (stereo not drawn) | inactive: -5.25% |
| CCOC(=O)c1ccc(NP(C)(=O)Oc2ccc(F)cc2)cc1 (stereo not drawn) | inactive: 5.11% |
| CCN(CC)CCCOC(=O)C(O)(c1ccccc1)C1CCCCC1 (stereo not drawn) | inactive: 0.563% |
| CCCCCOc1ccc(NP(C)(=O)Oc2ccc(Cl)cc2Cl)cc1 (stereo not drawn) | inactive: -2.23% |
| CP(=O)(Nc1ccccc1)Oc1ccc(F)cc1 (stereo not drawn) | inactive: -0.668% |
| COc1ccc(OP(C)(=O)Nc2cccc(Br)c2)cc1 (stereo not drawn) | inactive: -0.0377% |
| COc1ccc(NP(C)(=O)Oc2ccccc2OC)cc1 (stereo not drawn) | inactive: 0.26% |
| CN(C)CCOC(=O)C(O)(c1ccccc1)C1CCCCC1 (stereo not drawn) | inactive: -0.854% |
| Cc1cc(-c2cccc3ccccc23)c(C)cn1.O=[N+]([O-])c1cc([N+](=O)[O-])c(O)c([N+](=O)[O-])c1 | inactive: 2.53% |
| O=[N+]([O-])c1ccc(OP2(=O)COCCO2)cc1 (stereo not drawn) | inactive: -0.511% |
| CP(=O)(Nc1ccc(SC(F)(F)F)cc1)Oc1ccc(F)cc1 (stereo not drawn) | inactive: -7.05% |
| CCOP(C)(=S)SCC(=O)NC(C)(CC)C(=O)O (stereo not drawn) | inactive: 0.16% |
| CP(=O)(Nc1ccc2c(c1)OCCO2)Oc1ccccc1 (stereo not drawn) | inactive: 6.59% |
| Cc1ccccc1NP(C)(=O)Nc1ccccc1C | inactive: 4.88% |

Reference: PubChem BioAssay AID504466 (National Center for Advancing Translational Sciences (NCATS), 2011)
